Reference: US20020168755A1

Molecular target: human proTNF-α (human) (UniProt P01375)
Assay: cell-based or functional assay

## human MT-MMP1 (from UniProt P50281 112-582) (enzyme)
  least amount of MT-MMP1 vector giving a secreted TNF-α signal by ELISA, co-transfected 293EBNA cells (pg/transfection): 6
